Measurements reported in patent publication US8895604B2, “Solid forms of (1r,4r)-6′-fluoro-N,N-dimethy1-4-phenyl-4′,9′-dihydro-3′ H-spiro-[cyclohexane-1,1′-pyrano-[3,4,b]indol]-4-amine hydrochloride” (dated 2014).

Key:
[1] = TG-FTIR thermogravimetric analysis; details: nitrogen, 10° C./min, 25 up to 350° C., hydrochloride
[2] = Dynamic vapour sorption (DVS); details: 50→0→95→50% r.h. (2.5%/h)
[3] = Suspension equilibration experiments; details: suspended for several days in water at RT; Raman in the wet state
[4] = Storage at high relative humidity with FT-Raman / TG-FTIR
[5] = Solubility in water (saturated solutions, HPLC); details: RT
[6] = Physical and chemical stability on storage (HPLC purity, PXRD)

(1r,4r)-6′-fluoro-N,N-dimethyl-4-phenyl-4′,9′-dihydro-3′H-spiro[cyclohexane-1,1′-pyrano[3,4,b]indol]-4-amine hydrochloride [crystalline form F]
temperature above which decomposition was observed [1]: above 270 °C

(1r,4r)-6′-fluoro-N,N-dimethyl-4-phenyl-4′,9′-dihydro-3′H-spiro[cyclohexane-1,1′-pyrano[3,4,b]indol]-4-amine hydrochloride [crystalline form B]
relative humidity above which strong water uptake occurs in DVS [2]: above 74 % r.h
temperature above which decomposition was observed [1]: above 270 °C
conversion of crystalline form in suspension [3]: no conversion
conversion of crystalline form on storage ([4]; about 3 weeks at 97% r.h. at RT): no conversion
conversion of crystalline form on storage ([4]; more than 2 weeks at 75.5% r.h. at RT): No conversion
conversion of crystalline form on storage ([4]; more than 2 weeks at 97% r.h. at RT): No conversion

(1r,4r)-6′-fluoro-N,N-dimethyl-4-phenyl-4′,9′-dihydro-3′H-spiro[cyclohexane-1,1′-pyrano[3,4,b]indol]-4-amine hydrochloride [crystalline form E]
temperature above which decomposition was observed [1]: above 270 °C

(1r,4r)-6′-fluoro-N,N-dimethyl-4-phenyl-4′,9′-dihydro-3′H-spiro[cyclohexane-1,1′-pyrano[3,4,b]indol]-4-amine hydrochloride [crystalline form D]
temperature above which decomposition was observed [1]: above 270 °C

CN(C)[C@]1(c2ccccc2)CC[C@]2(CC1)OCCc1c3cc(F)ccc3[nH]c12
solubility ([5]; bidest H2O, saturated solution, 24 h equilibration time, HPLC): <0.30 µg/mL
resulting pH ([5]; pH of the saturated solution in bidest H2O, 24 h): 8.4
Purity, 1 week at 80° C. ([6]; closed vials, HPLC): 99.7 area %
PXRD, 1 week at 80° C. ([6]; closed vials, change of PXRD pattern): new peaks
Purity, 4 weeks at 40° C., 75% r.h. ([6]; open vials, HPLC): 99.5 area %
PXRD, 4 weeks at 40° C., 75% r.h. ([6]; open vials, change of PXRD pattern): new peaks
Ref. Purity ([6]; reference, before storage, HPLC): 99.7 area %
degradation after stability testing ([6]; summary of both storage conditions (4 weeks 40° C./75% r.h.; 1 week 80° C.)): clearly changes

(1r,4r)-6′-fluoro-N,N-dimethyl-4-phenyl-4′,9′-dihydro-3′H-spiro[cyclohexane-1,1′-pyrano[3,4,b]indol]-4-amine hydrochloride [crystalline form G]
temperature above which decomposition was observed [1]: > 350 °C

(1r,4r)-6′-fluoro-N,N-dimethyl-4-phenyl-4′,9′-dihydro-3′H-spiro[cyclohexane-1,1′-pyrano[3,4,b]indol]-4-amine hydrochloride [crystalline form C]
temperature above which decomposition was observed [1]: above 270 °C
